The record followed here is patent US11535597B2, “Photoreactive ligands and uses thereof” (The Scripps Research Institute, priority 2017, dated 2022).

The chains behind the UniProt entries cited, without tags or fusion partners. Residues count along the entry.
UniProt O43772, whole entry: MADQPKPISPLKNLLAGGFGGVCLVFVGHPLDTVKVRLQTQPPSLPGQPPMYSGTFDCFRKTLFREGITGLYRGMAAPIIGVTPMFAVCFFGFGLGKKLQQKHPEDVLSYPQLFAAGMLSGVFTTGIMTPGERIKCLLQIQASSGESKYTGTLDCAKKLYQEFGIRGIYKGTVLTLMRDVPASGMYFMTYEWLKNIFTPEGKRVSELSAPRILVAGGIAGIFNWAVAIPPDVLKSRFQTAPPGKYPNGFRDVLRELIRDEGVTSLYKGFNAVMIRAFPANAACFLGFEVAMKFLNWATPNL
UniProt Q8N8N7, whole entry: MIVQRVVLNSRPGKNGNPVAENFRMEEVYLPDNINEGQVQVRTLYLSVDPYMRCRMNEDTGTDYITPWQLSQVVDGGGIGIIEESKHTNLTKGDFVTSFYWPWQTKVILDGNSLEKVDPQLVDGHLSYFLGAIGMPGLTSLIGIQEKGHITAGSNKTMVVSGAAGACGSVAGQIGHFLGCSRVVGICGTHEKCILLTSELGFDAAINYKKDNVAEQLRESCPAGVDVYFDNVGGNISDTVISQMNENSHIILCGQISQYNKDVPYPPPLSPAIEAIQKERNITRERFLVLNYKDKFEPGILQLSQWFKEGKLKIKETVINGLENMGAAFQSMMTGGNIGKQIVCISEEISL
UniProt Q8N4Q0, whole entry: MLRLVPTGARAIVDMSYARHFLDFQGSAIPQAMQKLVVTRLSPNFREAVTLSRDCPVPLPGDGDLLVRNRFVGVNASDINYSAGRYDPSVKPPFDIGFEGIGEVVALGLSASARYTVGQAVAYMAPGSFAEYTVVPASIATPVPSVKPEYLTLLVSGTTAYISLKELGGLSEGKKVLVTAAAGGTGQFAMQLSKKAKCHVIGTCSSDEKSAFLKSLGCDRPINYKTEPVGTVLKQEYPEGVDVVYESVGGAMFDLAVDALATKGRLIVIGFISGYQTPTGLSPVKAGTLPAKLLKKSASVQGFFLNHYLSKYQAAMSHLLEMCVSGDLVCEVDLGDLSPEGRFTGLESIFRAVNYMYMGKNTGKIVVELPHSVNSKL
UniProt P37231, 238-503 limits assumed: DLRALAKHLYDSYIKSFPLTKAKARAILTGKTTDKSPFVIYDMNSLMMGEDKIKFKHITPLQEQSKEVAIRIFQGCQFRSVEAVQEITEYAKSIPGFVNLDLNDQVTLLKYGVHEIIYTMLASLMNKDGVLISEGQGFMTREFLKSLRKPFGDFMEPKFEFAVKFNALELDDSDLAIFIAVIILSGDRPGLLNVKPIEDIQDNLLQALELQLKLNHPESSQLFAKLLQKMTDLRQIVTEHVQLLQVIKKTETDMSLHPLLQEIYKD

The target of assay [1] is T1, SLC25A20 (Homo sapiens, UniProt O43772). Nature of the assay: Gel-based competitor blockade of FFF 3 labeling of recombinantly expressed SLC25A20 in HEK293T cells.
Assay [2] concerns the target T1, SLC25A20. The assay is described as follows: MS-based (SILAC) competition of FFF probe 3 labeling of SLC25A20 in cells. As to conditions: 20-50 μM.
The test system of another assay is HSC-5 cells. The assay is described as follows: LCMS analysis of acylcarnitines in HSC-5 cells. As to conditions: HSC5 cells.
The subject of a further assay is HSC5 cells. Nature of the assay: Oxygen consumption rate measurements (palmitate-BSA oxidation, Seahorse).
Assay [3] deals with T2, PTGR2 (Homo sapiens, UniProt Q8N8N7). The assay is described as follows: In vitro LCMS-based activity assay for PTGR2 (15-keto-PGE2 reductase activity).
Assay [4] has as its target T2, PTGR2. Nature of the assay: Gel-based competitor blockade of FFF 8 labeling of recombinantly expressed FLAG-tagged PTGR2 in HEK293T cells.
Assay [5] concerns the target T2, PTGR2. Nature of the assay: MS-based (SILAC) competition of FFF probe 8 labeling of endogenous PTGR2 in HEK293T cells. The settings on record: FFF probe 8 20 μM, 8× competitor.
The next assay has as its target ZADH2 (Homo sapiens, UniProt Q8N4Q0). Nature of the assay: MS-based (SILAC) competition of FFF probe 8 labeling of ZADH2 in HEK293T cells. As to conditions: competition with FFF probe 8 (20 μM).
The target in another assay is PPARγ (Homo sapiens, UniProt P37231). The assay is described as follows: GAL4-PPARγ luciferase reporter assay with empty control vector in HEK293T cells. As to conditions: GAL4-PPARγ luciferase reporter and empty control vector. In general terms: In a reporter assay the amount or activity of a reporter protein is the signal.

Regarding `Cc1ccc2c(CN3CCCC3CN(C)c3ccccc3)cc(=O)oc2c1` (stereo not shown), the “competitor blockade of FFF 3 labeling of recombinant SLC25A20 (gel)” value on SLC25A20 [1] (HEK293T cells) is given as “preferential binding”. Also, the 50% inhibitory concentration (IC50) (usually the point on the concentration scale where inhibition reaches its midpoint) on SLC25A20 [1] (read-out: IC50 for blockade of FFF probe 3 labeling of SLC25A20, recombinant SLC25A20 in HEK293T cells, probe 3 20 μM) is 10 µM. Besides, on SLC25A20 [2], the “blockade of probe 3 labeling of SLC25A20 in cells by quantitative MS-based proteomics” value is listed as “substantially blocked”. For the same compound, the “short- or medium-chain acylcarnitines (<C16)” value in the assay on HSC-5 cells is listed as “No changes”. In the assay with HSC-5 cells (21 0.2-100 μM, 3 h, 24 100 μM), the “long-chain (C16, C18, C18:1) acylcarnitines” value is listed as “strong, concentration-dependent increase”. In the assay on HSC5 cells (HSC5 cells), the “capacity to oxidize palmitate (exogenous fatty acid oxidation)” value is listed as “impaired capacity to oxidize palmitate”. Also, the “basal and maximal respiration (oxygen consumption rate)” value in the assay on HSC5 cells (HSC5 cells pre-treated for 40 min, then exogenous palmitate) was “concentration-dependent inhibition”.
With `COc1ccccc1C1CCN(C(=O)CN2CCCCC2=O)CC1`, at PTGR2 [3], the “effect on 15-keto-PGE2 reductase (catalytic) activity of recombinant PTGR2” value is “inhibited”. In addition, at PTGR2 [3] (read-out: IC50 for inhibition of PTGR2-mediated reduction of 15-keto-PGE2 (15-keto-PGE2 reductase activity), recombinant PTGR2), the IC50 was 79 µM. The “competitor blockade of FFF 8 labeling of recombinant PTGR2 (gel)” value at PTGR2 [4] is “preferential binding”. In addition, the “PTGR2 as competed target in competitive profiling” value on PTGR2 [5] was “top competed targets”. For the same compound, the “cross-reactivity with ZADH2” value on ZADH2 was “principal off-target”. Further, the “direct modulation of PPARγ transcriptional activity” value on PPARγ was “do not directly induce”.
